Assay results: ChEMBL document CHEMBL3774377 (Bioorg Med Chem, 2016)

Biological target: Sodium- and chloride-dependent GABA transporter 1 (Mus musculus, UniProt P31648)
Experiment: Displacement of NO 711 from mouse GAT1 expressed in HEK293 cell membranes after 40 mins by LC-ESI-MS-MS-based MS binding assay

- Ki: 58.2 µM
SMILES: O=C(O)C1CCCNC1 (stereo unspecified) [NIPECOTIC ACID]
